Experiment [1] deals with T1, Stimulator of interferon genes protein (Homo sapiens, UniProt Q86WV6). The experiment can be described thus: Potency index, ratio of test compound EC50 to prodrug EC50 for activation of wild-type human STING expressed in HEK293T cells co-expressing IRF3-activated ISRE assessed as IRF3 reporter activation measured after 7 hrs by luciferase reporter gene assay. In kind it is cell-based. Background: Reporter assays use an easily measured gene product as a stand-in for the process of interest.

Amino acid sequences for entries named in this document (tags omitted). A change or cut given only in a name is not applied to a line headed by its entry.
UniProt Q86WV6: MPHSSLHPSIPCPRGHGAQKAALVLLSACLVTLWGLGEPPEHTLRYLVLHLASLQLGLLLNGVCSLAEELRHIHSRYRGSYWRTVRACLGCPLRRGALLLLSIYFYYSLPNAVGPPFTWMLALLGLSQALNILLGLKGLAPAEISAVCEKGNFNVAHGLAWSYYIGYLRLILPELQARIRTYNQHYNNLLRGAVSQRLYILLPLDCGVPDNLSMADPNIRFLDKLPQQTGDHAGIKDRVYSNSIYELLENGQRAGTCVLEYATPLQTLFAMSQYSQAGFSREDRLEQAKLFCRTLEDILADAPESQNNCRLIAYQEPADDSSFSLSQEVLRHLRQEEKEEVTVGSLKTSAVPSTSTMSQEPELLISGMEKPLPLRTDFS

In experiment [2] the target is T1, Stimulator of interferon genes protein. The experiment can be described thus: Potency index, ratio of test compound EC50 to prodrug EC50 for activation of wild-type human STING expressed in human THP1-Dual cells co-expressing IRF3-activated ISRE assessed as IRF3 reporter activation measured after 30 mins by luciferase reporter gene assay. Format: cell-based.
The target is the same in experiment [3]. The experiment can be described thus: Potency index, ratio of test compound EC50 to prodrug EC50 for activation of wild-type human STING expressed in digitonin treated THP1-Dual cells co-expressing IRF3-activated ISRE assessed as IRF3 reporter activation measured after 7 hrs by luciferase reporter gene assay. In kind it is cell-based.
The target is the same in experiment [4]. The experiment can be described thus: Potency index, ratio of test compound EC50 to prodrug EC50 for activation of wild-type human STING expressed in HEK293T cells co-expressing IRF3-activated ISRE assessed as IRF3 reporter activation measured after 30 mins by luciferase reporter gene assay. Format: cell-based.
The nature of experiment [5]: Potency index, ratio of test compound EC50 to prodrug EC50 for induction of TNF-alpha production in healthy human PBMC incubated for 16 hrs. Format: functional.

Results on six compounds are retold here after ChEMBL document CHEMBL5036318, “Synthesis and Biological Evaluation of Phosphoester and Phosphorothioate Prodrugs of STING Agonist 3',3'-c-Di(2'F,2'dAMP)” (J Med Chem, 2021).

The structures appear in SMILES notation.

As to `CC(C)(C)C(=O)OCO[P@]1(=O)OC[C@H]2O[C@@H](n3cnc4c(N)ncnc43)[C@H](F)[C@@H]2O[P@](=O)(OCOC(=O)C(C)(C)C)OC[C@H]2O[C@@H](n3cnc4c(N)ncnc43)[C@H](F)[C@@H]2O1`, the Ratio EC50 in experiment [1] amounted to 441; in experiment [2], 173; in experiment [3] it was 32; in experiment [4] it was 3080.

In the case of `CC(C)OC(=O)OCO[P@]1(=O)OC[C@H]2O[C@@H](n3cnc4c(N)ncnc43)[C@H](F)[C@@H]2O[P@](=O)(OCOC(=O)OC(C)C)OC[C@H]2O[C@@H](n3cnc4c(N)ncnc43)[C@H](F)[C@@H]2O1`, the Ratio EC50 in experiment [1] worked out at 248; in experiment [2] it was 50; in experiment [3], 35; in experiment [4] it was 309.

For the compound `CCC(CC)C(=O)OCO[P@@]1(=O)OC[C@H]2O[C@@H](n3cnc4c(N)ncnc43)[C@H](F)[C@@H]2O[P@](=O)(OCOC(=O)C(CC)CC)OC[C@H]2O[C@@H](n3cnc4c(N)ncnc43)[C@H](F)[C@@H]2O1`, the Ratio EC50 was 275 in experiment [1], 55 in experiment [2], 21 in experiment [3] and 421 in experiment [4].

As for `CC(C)OC(=O)OCO[P@@]1(=O)OC[C@H]2O[C@@H](n3cnc4c(N)ncnc43)[C@H](F)[C@@H]2O[P@](=O)(OCOC(=O)OC(C)C)OC[C@H]2O[C@@H](n3cnc4c(N)ncnc43)[C@H](F)[C@@H]2O1`, the Ratio EC50 in experiment [1] stood at 48; in experiment [2] it was 20; in experiment [3], 10; in experiment [4] it was 102.

As to `CC(C)(C)C(=O)OCO[P@@]1(=O)OC[C@H]2O[C@@H](n3cnc4c(N)ncnc43)[C@H](F)[C@@H]2O[P@](=O)(OCOC(=O)C(C)(C)C)OC[C@H]2O[C@@H](n3cnc4c(N)ncnc43)[C@H](F)[C@@H]2O1`, the “Ratio EC50” value in experiment [5] came to 133; in experiment [1], 209; in experiment [2], 105; in experiment [3], 22; in experiment [4], 1330.

Turning to `CCC(CC)C(=O)OCO[P@]1(=O)OC[C@H]2O[C@@H](n3cnc4c(N)ncnc43)[C@H](F)[C@@H]2O[P@](=O)(OCOC(=O)C(CC)CC)OC[C@H]2O[C@@H](n3cnc4c(N)ncnc43)[C@H](F)[C@@H]2O1`, the Ratio EC50 in experiment [1] is 980; in experiment [2], 179; in experiment [3] it was 57; in experiment [4] it was 1500.
